Source: patent US20060167229A1, “Biologically active peptide conjugates” (priority 2002, published 2006)

Key:
NK cell = NK cell cytotoxicity activity test (spleen cells of treated mice against YAC-1 target cells, MTT); type: in vivo, BALB/c mice; settings: healthy mice
Protocol: The above substances were all dissolved in 0.5 ml saline and injected intraperitoneal (i.p.) for 15 continuous days, once per day.
Ten mice per group. The day after the last test substance administration, the mice were sacrificed by cervical dislocation. The spleen was isolated aseptically and manually dispersed in cold D-Hank's solution using an injection needle. The dispersed cell suspension was further sieved through a 100 gauge 150 μm diameter stainless steel sieve. After centrifugation at 200 g for 10 minutes, the supernatant was discarded. The cell pellet was re-suspended in 10 volume of Tris-NH4Cl buffer and then kept standing still for 10 minutes at room temperature. The suspended cells were collected by centrifugation at 150 g for 10 minutes. The cells were washed 2-4 times with cold D-Hank's solution by re-suspending and collecting by centrifugation with condition as described above. The washed cells were then diluted to the desired cell densities by RPMI-1640 culture medium, containing 10% fetal bovine serum.
Mice spleen cells were prepared to 4×10^6/ml as described in section 1.1 above. Target cells YAC-1 were brought to log phase and adjusted to 1×10^5/ml. Using a 96 wells cell culture plate, […] were added to the control well containing only the spleen cells; […] and 100 μl culture medium were added to the control well containing only target cells; 100 μl mouse spleen cells and 100 μl target cells were added to the NK activity assay well. Three parallel sets of the above were prepared per mouse.
Samples were centrifuged at 150 g for 10 minutes to collect the cells. The supernatant was discarded and 50 μl/well MTT of 1 mg/ml was added. The reaction-mixture was then shaken for 2 minutes, and incubated at 37° C., 5% CO2 for 4 hours. The supernatant was discarded after centrifugation at 150 g for 10 minutes. […] 40 mM HCl-2-propanol was added and shaken for 3 minutes. An ELISA reader was used to obtain OD570 nm of each well referenced at 630 nm.

L1210 leukemia = assay: Survival of mice with transplanted L1210 leukemia; type: in vivo, DBA/2 mice; settings: cyclophosphamide 20 mg/kg
Protocol: Intraperitoneal injection, once per day. […] The cyclophosphamide groups were treated on the next day after transplanting the cancer cells. Treatment of all groups with testing substance lasted for 30 days or until the animal died unless otherwise specified.
Stock L1210 cells were incubated in DMEM/F12 medium supplemented with 10% fetal bovine serum, 37° C./5% CO2 for 72 hrs, then washed 3-4 times with Hank's solution, and adjusted to […]. 0.1 ml of the cell suspension was implanted into the abdominal cavity of several healthy DBA mice for 6-8 days. The mice were then killed by cervical vertebra dislocation and their ascitic fluid collected aseptically. The cell concentration of the collected ascitic fluid was adjusted to 1×10^5 per ml with Hank's solution. 0.1 ml of the cell suspension was implanted into each of the testing animal and the survival data of the animals recorded. Treatment started in the testing animals as described in section Method 1. Mean survival day was obtained by the Kaplan-meier method in the Survival option of the SPSS software. If the animal survived longer than the experiment, the survival days was entered as the duration of the experiment. The survival index was calculated according to the following formula: Survival index=(mean survival days of treatment group−mean survival days of control group)÷mean survival days of control group 6. […]

anti-SRBC antibody = assay: Sheep Red Blood Cell (SRBC) hemolysis test, antibody formation; type: in vivo, BALB/c mice; settings: healthy mice, SRBC day 12 (IFN-γ, IL-2 3×10^5 IU/kg/day), saline 32 ± 7
Protocol: Sheep red blood cells (SRBC) were prepared by collecting blood from cervical vein and put into a sterile flask with glass beads. The flask was shaken for 3 minutes and the blood then mixed with Alsever solution (glucose 2.05 g, NaCl 0.4 g, […] 0.8 g, adjust to 100 ml with distilled water) and stored at 4° C. Immediately before use, samples were centrifuged at 130 g, 5 minutes to collect the SRBC. The cells were washed two times by re-suspension and centrifugation in normal saline. Then the cell pellet was collected by centrifugation at 180 g for 10 minutes and re-suspended in saline to make the final working SRBC suspension, 2% (v/v).
Complement was prepared by adding 10 volumes of fresh Cavy serum into one volume centrifuge packed SRBC, and then gently shaking for 30 minutes at 4° C. The SRBC was removed by centrifugation at 200 g for 10 minutes. 10 volumes of normal saline were added to obtain the working complement solution.
The BALB/c mice were randomly divided into the peptide group, IFN group, IL-2 group, and saline group, 10 mice per group. The test substances were administered as described in section 1.1, plus intraperitoneal injection 0.2 ml SRBC per mouse on day 12. On the day after the last test substance administration (day 16), blood was collected from the eye canthus and left at room temperature for one hour for serum exudation. After centrifugation at 200 g for 10 minutes, the serum was diluted by 500 times with normal saline.
To 1 ml diluted mouse serum of each mouse, 0.5 ml SRBC suspension was added. Ice cold. Then 1 ml working complement solution was added and incubated at 37° C. water bath for 10 minutes. Reactions were terminated by ice cold. Samples were then centrifuged at 200 g for 10 minutes to obtain the supernatant.
To 1 ml of this supernatant, 3 ml Drabkin solution was added and left at room temperature for 10 minutes. OD540 nm was obtained.
Reference OD540 nm was obtained by mixing 0.25 ml SRBC suspension with Drabkin solution to 4 ml and placed at room temperature for 10 minutes before OD540 nm was taken.
Sample serum index=(OD540 nm of test sample÷reference OD540 nm)×500

IL-2: recombinant human IL (rhIL)-2, Shanghai Huaxin Biotech Inc.; positive control
NK cell cytotoxic activity, X ± SD (%) (NK cell; peptide 0.5 μg/kg/day i.p. 15 days (IFN-γ, IL-2 3×10^5 IU/kg/day), saline 58 ± 7): 74 ± 10 %
NK cell cytotoxic activity, X ± SD (%) (NK cell; peptide 5 μg/kg/day i.p. 15 days (IFN-γ, IL-2 3×10^5 IU/kg/day), saline 60 ± 9): 80 ± 8 %
NK cell cytotoxic activity, X ± SD (%) (NK cell; peptide 50 μg/kg/day i.p. 15 days (IFN-γ, IL-2 3×10^5 IU/kg/day), saline 56 ± 8): 74 ± 8 %
NK cell cytotoxic activity, X ± SD (%) (NK cell; peptide 500 μg/kg/day i.p. 15 days (IFN-γ, IL-2 3×10^5 IU/kg/day), saline 63 ± 9): 77 ± 8 %
Survival index (%) (L1210 leukemia; controls: IL-2 3 × 10^5 IU/kg): 92.3%
Survival days (L1210 leukemia; controls: IL-2, IFN-γ 3 × 10^5 IU/kg, saline 16.6 ± 5.6): 32.0 ± 13.7 days
anti-SRBC antibody formation, X ± SD (Unit) (anti-SRBC antibody; peptide 0.5 μg/kg/day i.p. 15 days): 71 ± 11 Unit
anti-SRBC antibody formation, X ± SD (Unit) (anti-SRBC antibody; peptide 5 μg/kg/day i.p. 15 days): 71 ± 11 Unit
anti-SRBC antibody formation, X ± SD (Unit) (anti-SRBC antibody; peptide 50 μg/kg/day i.p. 15 days): 71 ± 11 Unit
anti-SRBC antibody formation, X ± SD (Unit) (anti-SRBC antibody; peptide 500 μg/kg/day i.p. 15 days): 71 ± 11 Unit
